scFv variants of Ab-91 (heavy chain) against a SARS-CoV-2 spike peptide

Antigen: PDVDLGDISGINAS, a 14-residue peptide of the SARS-CoV-2 spike HR2 region.

Ab-91 is the parent antibody, in scFv form: VL, then a 15-residue (Gly4Ser)3 linker, then VH. The light chain is unchanged in all variants.
VL: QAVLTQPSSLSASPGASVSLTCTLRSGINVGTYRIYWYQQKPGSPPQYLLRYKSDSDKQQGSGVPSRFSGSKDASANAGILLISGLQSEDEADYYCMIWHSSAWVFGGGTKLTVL
VH: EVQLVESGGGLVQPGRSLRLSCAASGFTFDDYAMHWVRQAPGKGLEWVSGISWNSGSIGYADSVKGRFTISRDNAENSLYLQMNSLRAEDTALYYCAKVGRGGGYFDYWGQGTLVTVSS

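Phage display of a naive human antibody library on the peptide gave the parent. In library AAYL51, one, two or three CDR residues were substituted; doubles and triples were drawn at random. The assay is AlphaSeq: two haploid yeast populations carry antibody and antigen on their surface. After mating in shaken culture at 30 °C for 16 h, diploids were selected and their barcode pairs sequenced. The ratio of observed to expected reads was calibrated, replicate by replicate, on BCL2-family standards whose Kd was known from biolayer interferometry. Each pool was mated in three replicate cultures.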

Substitutions are numbered in sequence along the VH above, starting at 1 (not Kabat). Values are log10 of the apparent Kd in nM; lower means stronger binding. A pair that was not seen in that replicate is written "nd"; this usually means weak binding, but a binder can also be missed. In this assay the parent's reference entry averaged 1.86; its copy inside this library read 0.88.

changes | log10 Kd, replicates
W53F+G56K+G104Y | 2.85 / 2.62 / 2.56
D30M+D31E+S57V | 3.33 / 3.36 / 2.71
F29I+I51Y+R101W | nd / nd / nd
Y32G+A61T+G100T | nd / nd / nd
I51C+G56C+K65H | nd / nd / nd
F27L+G56Y+I58H | 2.42 / 2.69 / 1.62
T28I+A33E+G59Q | nd / nd / nd
S55R+D62R+Y108S | 4.47 / nd / 3.91
D31A+A61V+G100S | 4.12 / nd / 5.02
F27K+D31I+A33Y | 5.34 / 5.05 / nd
D30E+W53V+K65G | nd / nd / nd
Y32D+R101S+Y108I | 3.68 / 5.47 / 4.43
S55P+R101N+Y105V | 5.31 / 5.14 / nd
H35M+S52I+G102V | nd / nd / nd
D30L+Y32I+V99H | nd / nd / nd

Further variants, results first:

log10 Kd, replicates | changes
nd / nd / nd | F27V+S57W+R101G
5.07 / 5.70 / nd | F27W+S57F+V99Y
5.78 / 4.35 / nd | S55E+G100W+G103E
nd / nd / nd | D30N+S52R+G56L
0.87 / 0.90 / 0.31 | T28K+I58Q+D107K
3.88 / nd / 4.19 | M34I+I51A+S55Q
4.98 / 6.42 / nd | G59F+G100H+R101D
4.60 / nd / nd | Y60R+A61G+V64P
4.16 / 4.29 / 4.98 | G26D+A61S+G104N
nd / nd / nd | G26F+D31I+Y60P
nd / 5.51 / nd | A33C+Y60D+R101D
5.71 / 4.84 / 5.79 | G59W+Y105F+D107V
4.12 / nd / nd | G26T+I51A
5.63 / nd / nd | Y32F+G50M+V64N
nd / nd / nd | A33I+W53I+S57W

From the list, the first 2 with no signal in any replicate:

changes	log10 Kd, replicates
F29I+I51Y+R101W	nd / nd / nd
Y32G+A61T+G100T	nd / nd / nd

Nonspecific signal, from three strains lacking the peptide, appeared in 21% of pairings of library AAYL51, centred on 4.54 (5% of these signals below 3.26); values are not corrected for it.

From the AlphaSeq antibody data of Engelhart et al. 2022 (doi:10.1038/s41597-022-01779-4), copy in the FLAb collection.